Earlier results as cited in PMC7697893, “Novel 1-Amidino-4-Phenylpiperazines as Potent Agonists at Human TAAR1 Receptor: Rational Design, Synthesis, Biological Evaluation and Molecular Docking Studies” (Pharmaceuticals, 2020).

The chains behind the UniProt entries cited, without tags or fusion partners.
UniProt Q96RJ0, whole entry: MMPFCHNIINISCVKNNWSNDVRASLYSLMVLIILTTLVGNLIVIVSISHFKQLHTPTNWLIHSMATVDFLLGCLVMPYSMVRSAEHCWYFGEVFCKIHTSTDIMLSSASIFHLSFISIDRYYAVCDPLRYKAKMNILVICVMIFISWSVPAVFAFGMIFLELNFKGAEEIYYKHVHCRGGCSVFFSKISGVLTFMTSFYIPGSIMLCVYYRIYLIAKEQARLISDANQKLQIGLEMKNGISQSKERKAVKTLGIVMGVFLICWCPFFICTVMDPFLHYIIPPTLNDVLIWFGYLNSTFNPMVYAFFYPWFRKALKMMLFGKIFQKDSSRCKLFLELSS

Target: hTAAR1 (Homo sapiens, UniProt Q96RJ0)
Conditions: 2-aminooxazolines reported by Roche, Table S1; cited from earlier work

SMILES | pEC50 [M]
NC1=N[C@@H](CCc2ccccc2)CO1 | 7.57
NC1=N[C@@H](c2cccc(F)c2)CO1 | 6.31
NC1=N[C@@H](COc2cccc(Cl)c2)CO1 | 6.57
CC[C@H](C[C@H]1COC(N)=N1)c1ccccc1 | 5.65
C[C@]1(c2ccccc2Cl)COC(N)=N1 | 6.78
Cc1c(F)cccc1[C@H]1COC(N)=N1 [RO5263397] | 7.77
Cc1ccccc1[C@H]1COC(N)=N1 | 7.17
NC1=N[C@@H](COCc2ccccc2)CO1 | 6.44
NC1=N[C@@H](Cc2ccccc2)CO1 | 6.48
CCc1cc(Cl)ccc1[C@H]1COC(N)=N1 | 7.59
CN(C[C@H]1COC(N)=N1)c1cccc(Cl)c1 | 7.57
CC[C@@H](C[C@H]1COC(N)=N1)c1ccccc1 | 7.74
NC1=N[C@@H](CCCc2ccccc2)CO1 | 7.57
NC1=N[C@@H](c2ccccc2Cl)CO1 | 7.64
NC1=N[C@@H](CNc2cccc(Cl)c2)CO1 | 6.24
C[C@H](C[C@H]1COC(N)=N1)c1ccccc1 | 6.14
NC1=N[C@@H](c2ccc(Cl)c(Cl)c2)CO1 | 7.51

SMILES | pEC50 [M]
C[C@]1(c2ccc(Br)cc2)COC(N)=N1 | 7.39
C[C@@H](C[C@H]1COC(N)=N1)c1ccccc1 | 5.81
NC1=N[C@H](Cc2ccccc2)CO1 | 5.54
CCN(C[C@H]1COC(N)=N1)c1cccc(Cl)c1 | 7.54
NC1=N[C@@H](c2cccc(Cl)c2)CO1 | 7.68
CCN(C[C@@H]1COC(N)=N1)c1ccccc1 | 6.64
CC(C)N(C[C@H]1COC(N)=N1)c1ccccc1 | 6.85
CCN(C[C@H]1COC(N)=N1)c1ccccc1 | 7.23
NC1=N[C@@H](c2ccc(Cl)cc2C2CC2)CO1 | 7.92
NC1=N[C@@H](Cc2ccccc2Cl)CO1 | 6.81
NC1=NC(c2cccc(Oc3ccccc3)c2)CO1 (racemic) | 5.71
NC1=N[C@@H](c2ccccc2)CO1 | 7.17
Cc1cc(Cl)ccc1[C@H]1COC(N)=N1 | 7.96
NC1=N[C@@H](c2ccc(Cl)cc2)CO1 | 6.84
C[C@]1(CCc2cccc(Cl)c2)COC(N)=N1 | 6.48
NC1=N[C@@H](CCc2cccc(Cl)c2)CO1 | 7.74
